Target: rat EP2 receptor (Rattus norvegicus, UniProt Q62928)
Test: STEP plate SEAP activity assay for EP2 agonist
Type: cell-based
Conditions: SEAP luminescence, 6-8 hours of stimulation

Sequences of proteins named here, by UniProt entry; tags and fusion partners are left off. A change or cut given only in a name is not applied to a line headed by its entry.
UniProt Q62928: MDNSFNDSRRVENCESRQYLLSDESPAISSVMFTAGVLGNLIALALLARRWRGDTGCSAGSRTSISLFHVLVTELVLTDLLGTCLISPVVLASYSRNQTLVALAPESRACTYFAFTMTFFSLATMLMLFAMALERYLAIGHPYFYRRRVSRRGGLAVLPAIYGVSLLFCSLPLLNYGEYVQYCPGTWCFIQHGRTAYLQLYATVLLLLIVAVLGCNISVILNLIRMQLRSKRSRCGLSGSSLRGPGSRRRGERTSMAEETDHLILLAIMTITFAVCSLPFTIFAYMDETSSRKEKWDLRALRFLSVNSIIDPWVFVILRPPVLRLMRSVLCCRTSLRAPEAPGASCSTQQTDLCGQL
UniProt P43114: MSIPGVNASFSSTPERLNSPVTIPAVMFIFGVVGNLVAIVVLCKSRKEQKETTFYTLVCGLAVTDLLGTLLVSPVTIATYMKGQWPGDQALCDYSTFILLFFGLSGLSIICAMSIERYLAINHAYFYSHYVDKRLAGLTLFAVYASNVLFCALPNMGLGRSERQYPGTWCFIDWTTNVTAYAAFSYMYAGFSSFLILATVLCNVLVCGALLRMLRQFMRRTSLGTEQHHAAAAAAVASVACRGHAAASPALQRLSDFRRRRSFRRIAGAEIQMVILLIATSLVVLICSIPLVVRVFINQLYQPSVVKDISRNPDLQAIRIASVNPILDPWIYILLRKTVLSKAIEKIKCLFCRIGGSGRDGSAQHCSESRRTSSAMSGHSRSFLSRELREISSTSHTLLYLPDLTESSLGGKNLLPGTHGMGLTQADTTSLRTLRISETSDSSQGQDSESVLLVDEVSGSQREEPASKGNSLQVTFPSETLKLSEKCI

Row | Compound | EC50
1 | O=C(O)CCCCCCN1C(=O)CC[C@@H]1/C=C/[C@@H](O)CCC#Cc1ccccc1 [5C′, 7-((R)-2-((3S,E)-3-hydroxy-7-phenylhept-1-en-6-yn-1-yl)-5-oxopyrrolidin-1-yl)heptanoic acid] | > 1000 nM
2 | O=C(O)CCCCCCN1C(=O)CC[C@@H]1/C=C/[C@H](O)CCC#Cc1ccccc1 [5D′, 7-((R)-2-((3R,E)-3-hydroxy-7-phenylhept-1-en-6-yn-1-yl)-5-oxopyrrolidin-1-yl)heptanoic acid] | > 5000 nM
3 | O=C(O)CCCCCCN1C(=O)CC[C@@H]1/C=C/[C@@H](O)C#Cc1ccccc1 [7C′, 7-((R)-2-((R,E)-3-hydroxy-5-phenylpent-1-en-4-yn-1-yl)-5-oxopyrrolidin-1-yl)heptanoic acid] | > 1000 nM
4 | C[C@@H](CCCc1ccccc1)[C@H](O)/C=C/[C@H]1CC(F)(F)C(=O)N1CCCCCCC(=O)O [Example 6D, 7-((R)-3,3-difluoro-5-((3S,4S,E)-3-hydroxy-4-methyl-7-phenylhept-1-en-1-yl)-2-oxopyrrolidin-1-yl)heptanoic acid] | > 1000 nM
5 | C[C@@H](CCCCc1ccccc1)[C@@H](O)/C=C/[C@H]1CC(F)(F)C(=O)N1CCCc1ccc(C(=O)O)s1 [Example 38D, 5-(3-((R)-3,3-difluoro-5-((3R,4S,E)-3-hydroxy-4-methyl-8-phenyloct-1-en-1-yl)-2-oxopyrrolidin-1-yl)propyl)thiophene-2-carboxylic acid] | > 10000 nM

Further lines, results first:

Row | EC50 | Compound
6 | > 1000 nM | CCC#CC[C@H](C)[C@H](O)/C=C/[C@H]1CCC(=O)N1CCCCCCC(=O)O [2E′, 7-((R)-2-((3S,4S,E)-3-hydroxy-4-methylnon-1-en-6-yn-1-yl)-5-oxopyrrolidin-1-yl)heptanoic acid]
7 | > 1000 nM | CCC#C[C@H](O)/C=C/[C@H]1CCC(=O)N1CCCCCCC(=O)O [6C′, 7-((R)-2-((R,E)-3-hydroxyhept-1-en-4-yn-1-yl)-5-oxopyrrolidin-1-yl)heptanoic acid]
8 | > 1000 nM | CCC#C[C@@H](O)/C=C/[C@H]1CCC(=O)N1CCCCCCC(=O)O [6D′, 7-((R)-2-((S,E)-3-hydroxyhept-1-en-4-yn-1-yl)-5-oxopyrrolidin-1-yl)heptanoic acid]
9 | > 1000 nM | CCC#CC[C@H](C)[C@H](O)/C=C/[C@H]1CCC(=O)N1CCc1ccc(C(=O)O)cc1 [9C′, 4-(2-((R)-2-((3S,4S,E)-3-hydroxy-4-methylnon-1-en-6-yn-1-yl)-5-oxopyrrolidin-1-yl)ethyl)benzoic acid]
10 | > 1000 nM | CCC#CC[C@H](C)[C@H](O)/C=C/[C@H]1CC(F)(F)C(=O)N1CCCCCCC(=O)O [Example 2C, 7-((R)-3,3-difluoro-5-((3S,4S,E)-3-hydroxy-4-methylnon-1-en-6-yn-1-yl)-2-oxopyrrolidin-1-yl)heptanoic acid]

Target: T1, rat EP4 receptor (Rattus norvegicus, UniProt P43114)
Test: not given
Conditions: not given

Row | EC50 | Compound
11 | 0.023 ± 0.019 nM | C[C@@H](CCCc1ccccc1)[C@H](O)/C=C/[C@H]1CC(F)(F)C(=O)N1CCCCCCC(=O)O [Example 6D, 7-((R)-3,3-difluoro-5-((3S,4S,E)-3-hydroxy-4-methyl-7-phenylhept-1-en-1-yl)-2-oxopyrrolidin-1-yl)heptanoic acid]
12 | 0.016 nM | C[C@H](CCCc1ccccc1)[C@H](O)/C=C/[C@H]1CC(F)(F)C(=O)N1CCCc1ccc(C(=O)O)s1 [Example 28G, 5-(3-((R)-3,3-difluoro-5-((3S,4R,E)-3-hydroxy-4-methyl-7-phenylhept-1-en-1-yl)-2-oxopyrrolidin-1-yl)propyl)thiphene-2-carboxylic acid]

Target: T1, rat EP4 receptor
Test: cell-based
Conditions: not given

Row | EC50 | Compound
13 | > 1000 nM | COC(=O)c1ccc(CCCN2C(=O)C(F)(F)C[C@@H]2/C=C/[C@H](O)[C@H](C)CCCc2ccccc2)s1 [Example 28F, methyl 5-(3-((R)-3,3-difluoro-5-((3R,4R,E)-3-hydroxy-4-methyl-7-phenylhept-1-en-1-yl)-2-oxopyrrolidin-1-yl)propyl)thiphene-2-carboxylate]
